Chains of the proteins cited; added tags and fusions are not shown.
UniProt P35367, whole entry: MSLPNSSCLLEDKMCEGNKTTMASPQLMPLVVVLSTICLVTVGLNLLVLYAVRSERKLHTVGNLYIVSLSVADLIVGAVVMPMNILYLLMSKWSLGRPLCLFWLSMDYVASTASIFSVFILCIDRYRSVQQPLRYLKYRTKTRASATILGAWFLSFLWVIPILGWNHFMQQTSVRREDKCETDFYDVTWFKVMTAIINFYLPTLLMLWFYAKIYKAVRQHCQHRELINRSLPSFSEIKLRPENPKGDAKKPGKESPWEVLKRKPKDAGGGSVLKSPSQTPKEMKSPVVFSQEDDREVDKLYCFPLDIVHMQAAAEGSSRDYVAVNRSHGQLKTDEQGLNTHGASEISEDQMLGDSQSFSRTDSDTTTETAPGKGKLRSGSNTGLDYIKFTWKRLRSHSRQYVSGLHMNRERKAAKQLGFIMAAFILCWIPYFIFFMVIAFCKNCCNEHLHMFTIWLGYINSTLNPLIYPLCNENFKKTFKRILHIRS

In US8541437B2, “Substituted 2,3,4,5-tetrahydro-1H-pyrido[4,3-b]indoles, methods for the production and use thereof” (Alla Chem, LLC, priority 2007, dated 2013):

Target: H1 histamine receptor (Homo sapiens, UniProt P35367)
Test: Histamine-induced intracellular calcium in SK-N-SH cells (Fura 2 AM), Phase 1: block of calcium entry

EC50: 40 nM
Structure (SMILES): Cc1ccc2c(c1)c1c(n2CCc2ccccc2)CCN(C)C1.Cl [1.2.1(1)HCl, 2,8-dimethyl-5-(2-phenethyl)-2,3,4,5-tetrahydro-1H-pyrido[4,3-b]indole hydrochloride]
